The values below come from PubChem BioAssay AID1233 (SRMLSC, 2008).

The target of the assay is HMG-CoA reductase [Enterococcus faecalis] (UniProt Q9FD70). In words: inhibitors of E. faecalis class II HMGR, confirmation, biochemical, Enterococcus faecalis (AID 1233).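 Also: 0% = full reaction carrier wells and 100% = background wells lacking mevalonate.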 The conditions noted are these: purified E. faecalis HMGR, NADPH absorbance 340 nm kinetics; at 100 µM (top of the series).

This is a selection; strong and weak results do not stand in their true shares. Potency and affinity values are given separately. Calls of active or inactive are those of the source.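 The calls were made as follows: active = a dose-response curve fit returns a half-maximal inhibitory concentration, extrapolated values included; inactive = the fit returns no such concentration.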

As for `CC(C)NC(=O)NP(=O)(Oc1ccccc1)Oc1ccccc1`, the inhibition (in general, the relative decrease from the control value, in per cent) was inactive: -1.73%.
